{"sequences": {"note": "Chains of the proteins cited; added tags and fusions are not shown.", "UniProt P15428, whole entry": "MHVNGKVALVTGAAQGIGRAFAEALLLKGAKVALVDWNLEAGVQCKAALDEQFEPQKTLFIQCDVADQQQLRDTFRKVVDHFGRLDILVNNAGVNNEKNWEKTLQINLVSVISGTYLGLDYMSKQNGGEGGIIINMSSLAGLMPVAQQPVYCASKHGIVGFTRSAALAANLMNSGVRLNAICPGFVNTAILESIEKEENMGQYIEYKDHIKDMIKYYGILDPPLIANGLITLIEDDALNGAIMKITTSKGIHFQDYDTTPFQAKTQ"}, "source": "patent US9789116B2", "about": "“Compositions and methods of modulating short-chain dehydrogenase activity” (CASE WESTERN RESERVE UNIVERSITY, priority 2013, dated 2017)", "key": {"[1]": {"test_system": "15-PGDH mRNA", "assay": "15-PGDH mRNA levels in colon cancer cell lines by real-time PCR", "conditions": "treated colon cancer cell lines"}, "[2]": {"test_system": "15-PGDH activity in cell lines", "assay": "Total 15-PGDH activity in lysates of treated cell lines (tritium method)", "conditions": "FIG. 13"}, "[3]": {"biological_target": "recombinant 15-PGDH (Homo sapiens (Human), UniProt P15428)", "assay": "Melting temperature shift of recombinant 15-PGDH (SYPRO Orange)", "type": "binding", "conditions": "10 μM and 100 μM cofactor (NAD, NADH)"}, "[4]": {"test_system": "A549 cells", "assay": "PGE2 levels in medium of IL1-beta stimulated A549 cells", "type": "cell-based", "conditions": "IL1-beta 23 hours, compound added for the last 5 hours"}, "[5]": {"test_system": "15-PGDH protein", "assay": "15-PGDH protein levels in cell lines (western blot, immuno-fluorescence)"}}, "data": [{"smiles": "COc1ccc(-c2cc(C(F)(F)F)n3nc(C(=O)N4CCCCC4)cc3n2)cc1", "values": [{"measurement": "15-PGDH mRNA levels", "setting": "[1]", "value": "do not in general alter 15-PGDH mRNA levels"}, {"measurement": "15-PGDH activity in treated cells (tritium method)", "setting": "[2]", "value": "increasing 15-PGDH activity in most cell lines"}, {"measurement": "direct binding to 15-PGDH by melting temperature shift", "setting": "[3]", "value": "evidence of direct binding to 15-PGDH"}, {"measurement": "15-PGDH activity in cells as reflected in PGE2 levels in medium", "setting": "[4]", "value": "clear inhibition of 15-PGDH activity in the cells"}, {"measurement": "levels of 15-PGDH protein (wt-PGDH) from cDNA expression vector", "setting": "[5]; 5 μM, V400-S3-2-32 cells", "value": "increases levels of 15-PGDH protein"}, {"measurement": "15-PGDH protein levels by immuno-fluorescence and western blot", "setting": "[5]; V503 cells", "value": "increase in 15-PGDH protein levels"}, {"measurement": "15-PGDH protein levels (western blot)", "setting": "[5]; colon cell lines", "value": "increases 15-PGDH protein levels"}]}]}
